pIC50: −log10 of the molar value.

The subject of this experiment is Trypanosoma cruzi (M/HOM/AR/74/CA-I CL72). It is filed as cell-based. The note with it: read-out: IC50B; peptide B alone; 50% reduction in untreated-culture growth after 96 hours; triplicate wells, three independent trials.

As to `CC[C@H](C)[C@H](NC(=O)CN)C(=O)NCC(=O)N[C@@H](C)C(=O)N[C@H](C(=O)N[C@@H](CC(C)C)C(=O)N[C@@H](CCCCN)C(=O)N[C@H](C(=O)N[C@@H](CC(C)C)C(=O)N[C@H](C(=O)N[C@H](C(=O)NCC(=O)N[C@@H](CC(C)C)C(=O)N1CCC[C@H]1C(=O)N[C@@H](C)C(=O)N[C@@H](CC(C)C)C(=O)N[C@H](C(=O)N[C@@H](CO)C(=O)N[C@@H](Cc1c[nH]c2ccccc12)C(=O)N[C@H](C(=O)N[C@@H](CCCCN)C(=O)N[C@@H](CCCNC(=N)N)C(=O)N[C@@H](CCCCN)C(=O)N[C@@H](CCCNC(=N)N)C(=O)N[C@@H](CCC(N)=O)C(=O)N[C@@H](CCC(N)=O)C(N)=O)[C@@H](C)CC)[C@@H](C)CC)[C@@H](C)O)[C@@H](C)O)C(C)C)C(C)C` [Melittin, melittin], the pIC50 was 6.10.
